Only a part of the results on these compounds is given; other tests are left out.
How the values were obtained:
[1] = simple diffusion, citrate buffer pH 5; cited from earlier work
[2] = Transdermal electrotransport flux / delivery efficiency of sufentanil (no method given)
[3] = In vitro transdermal electrotransport fentanyl flux, two-compartment diffusion cell

Compound | plasma concentration [1] | minimum sufentanil salt concentration below which transdermal electrotransport flux becomes dependent on concentration ([2]; aqueous donor reservoir solution) | minimum sufentanil salt concentration below which transdermal electrotransport flux becomes dependent on concentration ([2]; aqueous solution, equivalent of 1.7 mM) | transdermal electrotransport delivery efficiency (rate delivered per unit of applied current) relative to fentanyl ([2]; fraction of that of fentanyl) | time to steady state transdermal flux ([3]; constant DC 200 μA (100 μA/cm^2), 16 h, average of 6 runs) [h] | normalized transdermal fentanyl flux (percentage of steady state flux) ([3]; fentanyl HCl concentrations above about 6 mg/mL) [%]
CCC(=O)N(c1ccccc1)C1(COC)CCN(CCc2cccs2)CC1 | did not produce any detectable plasma concentration | about 1.7 mM | about 1 mg/mL | about one-third |  | 
CCC(=O)N(c1ccccc1)C1CCN(CCc2ccccc2)CC1 |  |  |  |  | 8 | 100

— patent US6881208B1
